Data from patent US4935362A, “BMY-28121, a new antitumor antibiotic” (Bristol-Myers Company, priority 1987, dated 1990).
Values after ≈ are worked out from the molar mass of the structure shown.

What was measured:
Type in all cases: cell-based
[1] = test system: Staphylococcus epidermidis A22152; conditions: nutrient agar, 10^4 CFU/ml
[2] = test system: Strpetococcus faecalis A9612; conditions: nutrient agar, 10^4 CFU/ml
[3] = test system: Klebsiella pnuemonia D-11; conditions: D11, nutrient agar, 10^4 CFU/ml
Proteus mirabilis A9554 = conditions: nutrient agar, 10^4 CFU/ml
[4] = test system: Morganella morganii A9553; conditions: nutrient agar, 10^4 CFU/ml
[5] = test system: Pseudomonas aeruginosa A9930; conditions: nutrient agar, 10^4 CFU/ml

CC1(C)S[C@@H]2[C@H](NC(=O)[C@H](N)c3ccccc3)C(=O)N2[C@H]1C(=O)O [Ampicillin, reference compound]
MIC [1]: 0.4 µg/mL (≈ 1.14 µM)
MIC [2]: 0.4 µg/mL (≈ 1.14 µM)
MIC [3]: 0.8 µg/mL (≈ 2.29 µM)
MIC (Proteus mirabilis A9554): 0.4 µg/mL (≈ 1.14 µM)
MIC [4]: > 100 µg/mL
MIC [5]: > 100 µg/mL
